Apparent affinities of Ab-14 variants for a coronavirus HR2 peptide

From the AlphaSeq antibody data of Li et al. 2023 (doi:10.1038/s41467-023-39022-2), copy in the FLAb collection.

The target is the same throughout: PDVDLGDISGINAS, from the HR2 region of SARS-CoV-2 spike.

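Phage display of a naive human antibody library on the peptide gave the parent. Designed CDR sequences, proposed from the first random library and measured here. Group labels follow the data file (Ctrl: baseline library sampled from a position-specific scoring matrix, with some repeated check sequences; En: ensemble of fine-tuned language models; GP: Gaussian process model; HC: hill climbing; Gen: genetic algorithm; Gibbs: Gibbs sampling; a sequence that several methods proposed may carry one label only). In AlphaSeq, yeast of one mating type display the scFv and yeast of the other type display the target. After mating in shaken culture at 30 °C for 16 h, diploids were selected and their barcode pairs sequenced. Scores were corrected for input abundance and mapped to Kd with protein pairs of known affinity run in the same pool. Mating was done six times.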

Ab-14 is the parent antibody, in scFv form: VH, then the linker GGGGSGGGGSGGGGS, then VL. The heavy chain is unchanged in all variants.
VH: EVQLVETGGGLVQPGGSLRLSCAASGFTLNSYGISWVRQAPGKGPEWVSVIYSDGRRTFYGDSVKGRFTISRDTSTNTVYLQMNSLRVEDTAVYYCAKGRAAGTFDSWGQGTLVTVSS
VL: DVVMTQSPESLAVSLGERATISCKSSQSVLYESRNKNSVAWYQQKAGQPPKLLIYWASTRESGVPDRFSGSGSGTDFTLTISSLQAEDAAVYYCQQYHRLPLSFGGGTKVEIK

Variants are written as CDR1, CDR2 and CDR3 of the light chain (limits as in the source). Parent: KSSQSVLYESRNKNSVA, WASTRES, QQYHRLPLS. Values are apparent Kd, the geometric mean of the replicates that gave a signal; lower means stronger binding. "not detected" means that the variant was in the library but no mating with the target was seen in any replicate; the authors take this as a sign of poor binding, and no number exists. Values of this round are not directly comparable with the first-round values of the same sequences.

| CDR-L1 | CDR-L2 | CDR-L3 | group | Kd (apparent) | replicates with signal |
|---|---|---|---|---|---|
| HITLGMYVAGRHSHSIA | QAETREK | QQYDRLPLA | En_Gen | 13 nM | 6/6 |
| KSSQSVLYESRNKNQVA | WASTRES | QQYHRLPLS | Ctrl | 810 nM | 3/6 |
| MISHVMNTLTRNGNNVA | DLAEREK | QQYFRLPLS | En_Gen | 17 nM | 6/6 |
| KFSQSELYESRNKNSVA | NASQRES | QQYHRLPLS | GP_Gen | 510 pM | 6/6 |
| KISQSLLYESRNKNSVA | DASTRES | VQYHRLPLS | Ctrl | 8.7 nM | 6/6 |
| KLDQSTLYESRNKNSVA | NASTRLS | QQYHRLPLS | GP_HC | 540 pM | 6/6 |
| SLTSHEEESEGAHASVA | EASMLES | QQYHRLPLM | En_Gibbs | not detected | 0/6 |
| HFSQVTMYGSWMKNSVA | QTSTREE | QQYDRLPLS | En_HC | 1.0 nM | 6/6 |
| KLSQQNKYESRMMNSVA | NASQRES | QQYHRLPLS | GP_Gibbs | 1.5 nM | 6/6 |
| MISQVMNTLTRHGNNVA | DLQEREQ | QQYFRLPLS | En_Gen | 11 nM | 5/6 |
| KSSTSVKFESRNKNSVA | DASTRES | QQYHRLPLS | GP_HC | 1.8 nM | 6/6 |
| KLSQSELYESRMKNSVA | NASTREE | QQYHRLPLS | GP_Gen | 4.3 nM | 6/6 |
| KMSQSWIYESRNKNSVA | GASTRES | QQYHRLPLS | GP_HC | 330 pM | 6/6 |
| KSSQSVLYEDRNKNSVA | EASTRES | QQYHALPLS | Ctrl | 32 nM | 6/6 |
| KSSISYLYPSRMKNSVA | EASTRES | QQYHRLPLS | GP_HC | 1.9 nM | 6/6 |
| KISMLYNYASTNKNSIA | EMTTRES | QHYHRLPLS | En_HC | not detected | 0/6 |
| KLSQSWLYESRMKNSVA | NASTRES | QQYHRLPLS | GP_Gen | 5.8 nM | 6/6 |
| KLREVQHLETKQRNNVA | DNDTRES | QDYYRLPLS | En_HC | not detected | 0/6 |
| MIYAATMELGRAKNSIA | DNVTRYD | QQYERLPLS | En_Gen | 790 nM | 3/6 |
| ILMQPQKELGAAKDNIA | DGSIRLD | QQYHRLPLV | En_Gibbs | 1.4 nM | 6/6 |
| KVSEFTRGLMSRQDSIA | DNVTRNR | QQYDRLPLS | En_Gen | 110 nM | 1/6 |
| IVSQLMIWGMHLKNSIA | EAQTRIN | QQYDRLPLM | En_Gen | not detected | 0/6 |
| KMSQSDLVESNNKNSVA | WASTRES | QQYHRWPLS | Ctrl | 440 nM | 6/6 |
| KLASVTGTEKVHGNNVA | EMETRER | QQYNRLPLA | En_Gen | 3.6 nM | 6/6 |
| TISMLMNHMTRNTNNVA | NMDMRED | QQYDRLPLS | En_Gen | 1.3 nM | 6/6 |
| KSSQSVLYESRNKNSVA | WASTRES | QAYHRPPLS | Ctrl | not detected | 0/6 |
| KSSTSYLYESRNKNSVA | AASTRES | QQYHRLPLS | GP_HC | 1.4 nM | 6/6 |
| KSSESWLYEWRNKNSVA | WASTRES | QQYHRLPLV | Ctrl | 260 nM | 1/6 |
| MITGSMEQEWSNKNPVA | SATDKAP | QSYFRLPLM | En_Gibbs | 7.0 nM | 6/6 |
| KSDQSVNYESENQNSVA | WASTRES | QQYHRLPLE | Ctrl | 100 nM | 6/6 |
| KSSQSYHYESRNKNSVA | EASTRES | QQYHRLPLS | GP_HC | 1.1 nM | 6/6 |
| TLTQSVQMESHNKNSVA | DLSTRGS | QQYHRLPLS | En_HC | 1.4 nM | 6/6 |
| KVSQSVLYESRMKNSVA | DASTRCS | QQYHRLPLQ | GP_HC | 1.2 nM | 6/6 |
| KWSCSQLYDSANKNSVA | NASTRMM | QQYHRLPLS | GP_Gibbs | 1.6 nM | 6/6 |
| MISQILNMGQFAINSVA | QASLRCN | QQYDRLPLM | En_Gen | not detected | 0/6 |
| KSAQSDLMESRNFNSVA | DASTRES | QQYHRLPLS | GP_Gibbs | 590 pM | 6/6 |
| KLSQSVNMTGKNKNSVA | ELSFREQ | QQYERLPLS | En_HC | 84 nM | 6/6 |
| KISMLVNFLGKNMNSVA | QMSTRES | QQYDRLPLS | En_HC | 9.2 nM | 6/6 |
| KSSQSVLYESRNFNSVA | WASTRES | QQYHRLPLD | Ctrl | 88 nM | 1/6 |
| KLMWSVMLESRNKNSVA | QASTRMS | QQYHRLPLS | GP_Gibbs | 5.4 nM | 6/6 |
| KQSQSWLYESRNKNSVA | NASQRES | QQYHRLPLS | GP_Gen | 640 pM | 6/6 |
| KSSQSVFYESRNKNSVA | GASTREV | QQYHRLPLS | Ctrl | 2.0 nM | 6/6 |
| KLEQSWLYESRNKNSVA | NASQRED | QQYHRLPLS | GP_Gen | 13 nM | 6/6 |
| MISQSWLYGSRARNSVA | QTSTRES | QQYDRLPLS | En_HC | 12 nM | 6/6 |
| KSSQSVLYESRNKNSVA | EASTRES | AQYHRLPLS | Ctrl | 90 nM | 6/6 |
| KYSFSDLNESRNKNSVA | EASTREQ | QQYHRLPLS | GP_Gibbs | 1.1 nM | 6/6 |
| KLQQSVLYESRNKNSVA | NASTREK | QQYHRLPLS | GP_Gen | 730 pM | 6/6 |
| MIAQMLGWESNKINSVA | QANLRTE | QQYDRLPLE | En_Gen | 68 nM | 6/6 |
| MISQLYNYGTFAINSVA | QASIRCN | QQYDRLPLM | En_Gen | 180 nM | 3/6 |
| KLSQSFLYESRWKNSVA | NASQRES | QQYHRLPLS | GP_HC | 1.1 nM | 6/6 |
| TISQLMNMGQFAINSVA | QASIRNH | QQYDRLPLT | En_Gen | 17 nM | 6/6 |
| KSQQSQEYESRNKNSVA | HASTRED | QQYHCLPLS | GP_HC | 13 nM | 6/6 |
| SMRAVGCDWQRNHSNIA | DATQIED | QQYVMLPLS | En_Gibbs | 62 nM | 6/6 |
| KVSQSVLYESGNKNSVA | NASTRES | QQYHRLPLS | GP_HC | 680 pM | 6/6 |
| KMEQGVPYESRNKGSVA | GASVRES | QQYHRLPLS | GP_HC | 4.1 nM | 6/6 |
| HIQEVDNQVENQNGNVA | DASEYLA | QQYFQLPIS | En_Gibbs | 110 nM | 6/6 |
| KLDQSQLYESRNKNSVA | NASQRES | QQYHRLPLS | GP_Gen | 370 pM | 6/6 |
| KSSQSVLYNSRNKNSVA | WASTRES | QQYHRLPLS | Ctrl | 350 nM | 4/6 |
| KSSQSVSPESREKNSVA | YASTRES | QQYHRLPLS | Ctrl | 37 nM | 5/6 |
| KSSQSVLYESRNKNSVA | YASTRES | QQMHRLPLS | Ctrl | 390 nM | 6/6 |
| KLVNSTLYESRQKNSVA | WASTREE | QQYHRLPLS | GP_HC | 9.7 nM | 6/6 |
| KLRQSVLYESRNKNSVA | NASTRES | QQYHRLPLS | GP_Gen | 360 pM | 6/6 |
| KLQQSVWYESRNKNSVA | NASTRES | QQYHRLPLS | GP_Gen | 770 pM | 6/6 |

The last 5 entries again:

| CDR-L1 | CDR-L2 | CDR-L3 | group | Kd (apparent) | replicates with signal |
|---|---|---|---|---|---|
| KSSQSVSPESREKNSVA | YASTRES | QQYHRLPLS | Ctrl | 37 nM | 5/6 |
| KSSQSVLYESRNKNSVA | YASTRES | QQMHRLPLS | Ctrl | 390 nM | 6/6 |
| KLVNSTLYESRQKNSVA | WASTREE | QQYHRLPLS | GP_HC | 9.7 nM | 6/6 |
| KLRQSVLYESRNKNSVA | NASTRES | QQYHRLPLS | GP_Gen | 360 pM | 6/6 |
| KLQQSVWYESRNKNSVA | NASTRES | QQYHRLPLS | GP_Gen | 770 pM | 6/6 |

Of ten entries with the parent sequence, four were seen in most replicates (averages 2.2 nM to 240 nM), three in one and three in none, so single entries are noisy. In the paper, a design with two or fewer of six values counts as a poor binder. As a blank, each scFv also met three strains without target: over all light chain designs, 4% of these pairings were detected, typically at 430 nM and seldom below 38 nM.